# Screens (PubChem BioAssay)
# In the library only some 0.7% were active in any assay of this set; here they are far more common.
# HCMV NEC inh – disrupts HCMV UL50-UL53 complex binding. actives 0.15% (n = 190,000). inhibition, % (concentration not given with the values). HTRF UL50-UL53 interaction, normalized percent inhibition; in the data active = inhibition above about 27%, passing the limit was not always enough
# Sa growth 42C – blocks Staphylococcus aureus growth; S. aureus RN4220 growth, OD600, 20 h, 42 °C; stronger effect = lower value; relative growth, % (test concentration not listed); actives 0.53% (n = 170,000); AID 720641;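 active = relative growth at most 50% at the other temperature and 20+ points below 30 °C, or under 10% at both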
# GIV-Gai inh – blocks GIV peptide binding to rat Galpha-i3. P08753. Galpha-i3/FITC-GIV peptide fluorescence polarization, 90 min; stronger effect = lower value; scaled: aluminum fluoride 0%, vehicle 100%. percent of control (FP), % (test concentration not listed). 0.42% of 210,000 active. AID 1224905;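 active = replicate mean at 85% of control or lower, very high polarization wells dropped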;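 also: wells of about 15 µL received 100 nL stock; the first replicate is given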
# * = called active by the depositor; x = no result given; ! = not confirmed by another sample.
1. COc1c(Cl)cc(Cl)cc1/C=C(\C#N)C(N)=O
  HCMV NEC inh: -36.0; Sa growth 42C: 107.8; GIV-Gai inh: 103.4

2. O=C(CSc1ccc2nnc(-c3cccnc3)n2n1)NCc1ccccc1
  HCMV NEC inh: -7.4; Sa growth 42C: 98.6; GIV-Gai inh: 102.5

3. Cc1ccccc1-n1nnnc1Sc1nnnn1-c1ccccc1
  HCMV NEC inh: 39.7*; Sa growth 42C: 56.3; GIV-Gai inh: x

4. Cc1cccc(-n2c(Sc3nnnn3-c3ccccc3)nc3ccccc3c2=O)c1C
  HCMV NEC inh: -15.8; Sa growth 42C: 103.9; GIV-Gai inh: x

5. COC(=O)C1CCN(C(=O)CSc2nnc3n(-c4c(C)cccc4C)c(=O)c4ccccc4n23)CC1
  HCMV NEC inh: -31.1; Sa growth 42C: 118.0; GIV-Gai inh: x

6. N#C[C@@H]1C[C@@](C#N)(C(=O)c2ccccc2)[C@H]2C=Cc3ccccc3N12
  HCMV NEC inh: -37.9; Sa growth 42C: 5.3*; GIV-Gai inh: x

7. N#CC1(C#N)C(c2ccccc2)C(C(=O)c2ccccc2)N2c3ccccc3C=CC21 (stereo not drawn)
  HCMV NEC inh: x; Sa growth 42C: x; GIV-Gai inh: 111.7

8. Oc1ccc2ccccc2c1/C=N/c1nccs1
  HCMV NEC inh: 108.0*; Sa growth 42C: 110.8; GIV-Gai inh: 100.3

9. Oc1ccc2ccccc2c1C=Nc1c(F)c(F)c(F)c(F)c1F
  HCMV NEC inh: -24.7; Sa growth 42C: 122.7; GIV-Gai inh: x

10. CS(=O)(=O)N(CCc1ccccc1)CC(=O)N1CCOCC1
  HCMV NEC inh: 14.3; Sa growth 42C: 100.8; GIV-Gai inh: 105.1

11. CCn1cc(C(=O)O)c(=O)c2cc(F)c(N3CCN(C(=S)NC(=O)c4c(-c5ccccc5)noc4C)CC3)cc21
  HCMV NEC inh: -8.4; Sa growth 42C: 2.0*; GIV-Gai inh: 103.9

12. CCn1cc(C(=O)O)c(=O)c2cc(F)c(N3CCN(C(=S)NC)CC3)cc21
  HCMV NEC inh: 0.0; Sa growth 42C: 64.3; GIV-Gai inh: x

13. Cc1cc2c(cc1C)-c1c(ssc1=Nc1ccc(Cl)cc1)C(C)(C)N2
  HCMV NEC inh: x; Sa growth 42C: x; GIV-Gai inh: 105.1

14. CCn1c(=O)c(=O)[nH]c2cc(C(=O)Nc3ccc4c(c3)CCC4)ccc21
  HCMV NEC inh: -38.8; Sa growth 42C: 93.3; GIV-Gai inh: x

15. NC(=O)Cn1cc(F)c(=O)[nH]c1=O
  HCMV NEC inh: 4.2; Sa growth 42C: 90.0; GIV-Gai inh: 100.7

16. CCCCCCNC(=O)n1cc(F)c(=O)[nH]c1=O
  HCMV NEC inh: 4.2; Sa growth 42C: 1.1*; GIV-Gai inh: x

17. CC(C)NC(=O)n1cc(F)c(=O)[nH]c1=O
  HCMV NEC inh: -12.0; Sa growth 42C: -0.6*; GIV-Gai inh: x

18. CCCCCNC(=O)CCCCCn1c(=O)[nH]c2ccsc2c1=O
  HCMV NEC inh: -5.1; Sa growth 42C: 95.0; GIV-Gai inh: 102.8

19. COC(=O)c1cc2c(ccn2-c2ccc(F)cc2)n1CC(=O)N1CCCCC1
  HCMV NEC inh: -6.7; Sa growth 42C: 97.0; GIV-Gai inh: 94.9

20. Cc1noc(C)c1C(=O)Nc1nnc(SCc2ccc(Cl)cc2)s1
  HCMV NEC inh: 1.7; Sa growth 42C: 4.9*; GIV-Gai inh: x

21. Cc1noc(C)c1C(=O)Nc1nnc(SCC(=O)O)s1
  HCMV NEC inh: 8.4; Sa growth 42C: 104.3; GIV-Gai inh: x

22. NC[C@H]1O[C@H](O[C@H]2[C@H](O)[C@@H](O[C@H]3O[C@H](CO)[C@@H](O)[C@H](N)[C@H]3O)[C@H](N)C[C@@H]2N)[C@H](N)C[C@@H]1O
  HCMV NEC inh: -30.5; Sa growth 42C: -0.6*!; GIV-Gai inh: 97.6

23. NC[C@H]1O[C@H](OC2[C@@H](N)C[C@@H](N)[C@H](O[C@H]3O[C@H](CO)[C@@H](O)[C@H](N)[C@H]3O)[C@H]2O)[C@H](O)[C@@H](O)[C@@H]1O (stereo partly drawn)
  HCMV NEC inh: 6.7; Sa growth 42C: 99.4; GIV-Gai inh: x

24. COc1ccc(CCNC2=CC(=O)CC(C)(C)C2)cc1OC
  HCMV NEC inh: -1.8; Sa growth 42C: 110.0; GIV-Gai inh: 105.1

25. COc1cccc(C(=O)Nc2c3c(nn2C(C)(C)C)CS(=O)(=O)C3)c1
  HCMV NEC inh: x; Sa growth 42C: x; GIV-Gai inh: 101.0

26. CC(=O)Nc1nc2ccc(N=Cc3nc(-c4cccc5ccccc45)oc3O)cc2s1
  HCMV NEC inh: x; Sa growth 42C: x; GIV-Gai inh: 116.9

27. CCn1c(/N=C/c2ccccc2Cl)nc2ccccc21
  HCMV NEC inh: 72.1*; Sa growth 42C: 87.7; GIV-Gai inh: 103.9

28. CCCn1c(/N=C/c2ccccc2Cl)nc2ccccc21
  HCMV NEC inh: 12.9; Sa growth 42C: 79.9; GIV-Gai inh: x

29. CC(C)(CNC(=O)Cc1ccsc1)N1CCOCC1
  HCMV NEC inh: -12.5; Sa growth 42C: 95.2; GIV-Gai inh: x

30. CC(C)(CNC(=O)Nc1ccc(Cl)c(Cl)c1)N1CCOCC1
  HCMV NEC inh: 0.5; Sa growth 42C: -0.6*; GIV-Gai inh: x

31. CC1(C)S[C@@H]2C(NC(=O)C(C(=O)O)c3ccccc3)C(=O)N2C1C(=O)O (stereo partly drawn)
  HCMV NEC inh: -12.5; Sa growth 42C: x; GIV-Gai inh: x

32. CC1(C)SC2C(NC(=O)Cc3ccccc3)C(=O)N2C1C(=O)O (stereo not drawn)
  HCMV NEC inh: -16.7; Sa growth 42C: x; GIV-Gai inh: x

33. Cc1onc(-c2c(Cl)cccc2Cl)c1C(=O)NC1C(=O)N2C1SC(C)(C)C2C(=O)O (stereo not drawn)
  HCMV NEC inh: -10.0; Sa growth 42C: x; GIV-Gai inh: x

34. Cc1onc(-c2c(Cl)cccc2Cl)c1C(=O)N[C@@H]1C(=O)N2[C@@H]1SC(C)(C)[C@@H]2C(=O)O
  HCMV NEC inh: -9.2; Sa growth 42C: -0.4*; GIV-Gai inh: x

35. Cc1onc(-c2ccccc2)c1C(=O)NC1C(=O)N2[C@@H]1SC(C)(C)[C@@H]2C(=O)O (stereo partly drawn)
  HCMV NEC inh: -12.6; Sa growth 42C: -0.9*; GIV-Gai inh: x

36. COc1cccc(OC)c1C(=O)N[C@@H]1C(=O)N2[C@@H]1SC(C)(C)[C@@H]2C(=O)O
  HCMV NEC inh: -15.5; Sa growth 42C: -0.7*; GIV-Gai inh: x

37. COc1ccc(C2=CSC3=NS(=O)(=O)CCN23)cc1Cl
  HCMV NEC inh: 4.0; Sa growth 42C: 100.7; GIV-Gai inh: x

38. FC(F)(F)c1ccc(N=Cc2cccs2)cc1
  HCMV NEC inh: -28.3; Sa growth 42C: 103.2; GIV-Gai inh: x

39. COc1cccc(NC(=O)c2oc3ccccc3c2NC(=O)C2CCCC2)c1
  HCMV NEC inh: -7.7; Sa growth 42C: 103.1; GIV-Gai inh: 104.9

40. COc1ccc(NS(=O)(=O)c2cc(-c3nnc(C(=O)N4CCCC4)o3)sc2C)cc1OC
  HCMV NEC inh: x; Sa growth 42C: x; GIV-Gai inh: 98.4

41. Cc1ncc(CO)c(/C=N/N=C/c2c(O)ccc3ccccc23)c1O
  HCMV NEC inh: -3.6; Sa growth 42C: 114.8; GIV-Gai inh: 117.1

42. Cc1ccc(C(O)CN=Cc2c(O)ccc3ccccc23)cn1 (stereo not drawn)
  HCMV NEC inh: 61.8*; Sa growth 42C: 102.8; GIV-Gai inh: x

# Entries listed so far with a cyano group (three):
1. COc1c(Cl)cc(Cl)cc1/C=C(\C#N)C(N)=O
  HCMV NEC inh: -36.0; Sa growth 42C: 107.8; GIV-Gai inh: 103.4

6. N#C[C@@H]1C[C@@](C#N)(C(=O)c2ccccc2)[C@H]2C=Cc3ccccc3N12
  HCMV NEC inh: -37.9; Sa growth 42C: 5.3*; GIV-Gai inh: x

7. N#CC1(C#N)C(c2ccccc2)C(C(=O)c2ccccc2)N2c3ccccc3C=CC21 (stereo not drawn)
  HCMV NEC inh: x; Sa growth 42C: x; GIV-Gai inh: 111.7
